Experimental data: patent US9062119B2, “Modified peptide toxins” (University of Debrecen, priority 2011, dated 2015)

Amino acid sequences for entries named in this document (tags omitted).
UniProt P16389, whole entry: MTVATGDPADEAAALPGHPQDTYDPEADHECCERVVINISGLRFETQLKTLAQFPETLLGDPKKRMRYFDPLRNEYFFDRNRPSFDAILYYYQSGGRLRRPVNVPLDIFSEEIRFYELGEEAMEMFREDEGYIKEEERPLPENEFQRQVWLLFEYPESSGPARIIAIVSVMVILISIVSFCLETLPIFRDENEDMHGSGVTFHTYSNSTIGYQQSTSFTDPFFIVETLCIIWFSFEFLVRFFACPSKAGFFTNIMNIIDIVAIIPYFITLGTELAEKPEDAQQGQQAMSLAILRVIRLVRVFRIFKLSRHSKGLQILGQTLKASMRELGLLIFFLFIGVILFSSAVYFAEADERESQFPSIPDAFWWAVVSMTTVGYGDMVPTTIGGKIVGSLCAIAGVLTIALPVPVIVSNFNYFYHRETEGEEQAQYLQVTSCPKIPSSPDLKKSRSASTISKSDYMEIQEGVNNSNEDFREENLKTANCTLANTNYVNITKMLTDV
UniProt P22001, whole entry: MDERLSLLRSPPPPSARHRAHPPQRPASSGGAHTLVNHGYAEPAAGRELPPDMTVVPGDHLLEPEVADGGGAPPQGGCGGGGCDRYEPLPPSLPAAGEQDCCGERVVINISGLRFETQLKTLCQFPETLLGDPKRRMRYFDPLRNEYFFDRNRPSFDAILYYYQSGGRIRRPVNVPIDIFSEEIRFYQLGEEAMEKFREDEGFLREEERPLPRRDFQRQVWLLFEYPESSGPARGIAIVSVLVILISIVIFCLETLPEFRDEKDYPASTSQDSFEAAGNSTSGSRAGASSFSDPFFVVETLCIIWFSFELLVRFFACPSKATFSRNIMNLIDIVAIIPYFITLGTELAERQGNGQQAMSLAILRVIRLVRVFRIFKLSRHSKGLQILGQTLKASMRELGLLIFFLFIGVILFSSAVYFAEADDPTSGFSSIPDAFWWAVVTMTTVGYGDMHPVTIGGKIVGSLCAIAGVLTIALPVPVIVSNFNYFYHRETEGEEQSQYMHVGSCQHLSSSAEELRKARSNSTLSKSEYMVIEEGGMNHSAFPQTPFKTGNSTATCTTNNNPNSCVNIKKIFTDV

What was measured:
[1] = molecular target: T1, hKv1.2 (Homo sapiens, UniProt P16389); experiment: Whole-cell patch-clamp block of hKv1.2 expressed in Cos-7 cells; assay type: cell-based
T1 construct: expressed in transfected cells; host or cells: Cos-7 cells, co-transfected with a separate GFP plasmid

[2] = tested on: Kv1.3 channels; experiment: Whole-cell patch-clamp block of Kv1.3 currents in activated human peripheral T lymphocytes; assay type: cell-based
[3] = molecular target: T2, Kv1.3 channels (Homo sapiens, UniProt P22001); experiment: as above; assay type: cell-based
T2 construct: endogenous in cells

[4] = tested on: DTH; conditions: rats; Varga Z. et al. (2012); cited from earlier work

CSCC[C@@H]1NC(=O)[C@@H]2CSSC[C@H](NC(=O)[C@H](CCC(=O)O)NC(=O)[C@H](CCCCN)NC(=O)[C@@H]3CCC(=O)N3)C(=O)N[C@@H]([C@@H](C)O)C(=O)NCC(=O)N3CCC[C@H]3C(=O)N[C@@H](CCC(N)=O)C(=O)N[C@@H](Cc3c[nH]cn3)C(=O)N[C@H]3CSSC[C@H](NC(=O)[C@H](CCCCN)NC(=O)[C@H](CCCNC(=N)N)NC(=O)[C@H](CC(N)=O)NC1=O)C(=O)N[C@@H](CCCCN)C(=O)N[C@H]1CSSC[C@H](NC(=O)[C@H](Cc4ccccc4)NC(=O)[C@H](CC(N)=O)NC(=O)[C@H]([C@@H](C)O)NC3=O)C(=O)N[C@@H](CCCNC(=N)N)C(=O)N[C@@H](CC(=O)O)C(=O)N[C@@H](C)C(=O)N[C@@H](CCCCN)C(=O)N[C@@H](CSSC[C@@H](C(=O)N[C@@H](CCCCN)C(=O)O)NC(=O)[C@H](CC(N)=O)NC(=O)[C@H](Cc3ccc(O)cc3)NC1=O)C(=O)N[C@@H]([C@@H](C)O)C(=O)N[C@@H](Cc1c[nH]cn1)C(=O)NCC(=O)N[C@@H](CCCCN)C(=O)N2 [(K16D, N17A, F32Y)]
pKd ([1]; Hill fit of remaining current fraction, read-out: Kd for Kv1.2): 7.63 | selectivity ratio SR=Kd[1.2]/Kd[1.3] [2]: 17 | pKd [3]: 8.85

CSCC[C@@H]1NC(=O)[C@@H]2CSSC[C@H](NC(=O)[C@H](CCC(=O)O)NC(=O)[C@H](CCCCN)NC(=O)[C@@H]3CCC(=O)N3)C(=O)N[C@@H]([C@@H](C)O)C(=O)NCC(=O)N3CCC[C@H]3C(=O)N[C@@H](CCC(N)=O)C(=O)N[C@@H](Cc3c[nH]cn3)C(=O)N[C@H]3CSSC[C@H](NC(=O)[C@H](CCCCN)NC(=O)[C@H](CCCNC(=N)N)NC(=O)[C@H](CC(N)=O)NC1=O)C(=O)N[C@@H](CCCCN)C(=O)N[C@H]1CSSC[C@H](NC(=O)[C@H](Cc4ccccc4)NC(=O)[C@H](CC(N)=O)NC(=O)[C@H]([C@@H](C)O)NC3=O)C(=O)N[C@@H](CCCNC(=N)N)C(=O)N[C@@H](CCCCN)C(=O)N[C@@H](C)C(=O)N[C@@H](CCCCN)C(=O)N[C@@H](CSSC[C@@H](C(=O)N[C@@H](CCCCN)C(=O)O)NC(=O)[C@H](CC(N)=O)NC(=O)[C@H]([C@@H](C)O)NC1=O)C(=O)N[C@@H]([C@@H](C)O)C(=O)N[C@@H](Cc1c[nH]cn1)C(=O)NCC(=O)N[C@@H](CCCCN)C(=O)N2 [(N17A, F32T)]
improvement of affinity for Kv1.2 compared to F32T alone ([1]; compared to F32T): 5 fold | selectivity for Kv1.3 over Kv1.2 ([2]; ratio of Kd,Kv1.2 and Kd,Kv1.3): 2400 fold | pKd [3]: 9.20 | increase of affinity for Kv1.3 compared to F32T alone ([3]; compared to F32T): 12 fold

CSCC[C@@H]1NC(=O)[C@@H]2CSSC[C@H](NC(=O)[C@H](CCC(=O)O)NC(=O)[C@H](CCCCN)NC(=O)[C@@H]3CCC(=O)N3)C(=O)N[C@@H]([C@@H](C)O)C(=O)NCC(=O)N3CCC[C@H]3C(=O)N[C@@H](CCC(N)=O)C(=O)N[C@@H](Cc3c[nH]cn3)C(=O)N[C@H]3CSSC[C@H](NC(=O)[C@H](CCCCN)NC(=O)[C@H](CCCNC(=N)N)NC(=O)[C@H](CC(N)=O)NC1=O)C(=O)N[C@@H](CCCCN)C(=O)N[C@H]1CSSC[C@H](NC(=O)[C@H](Cc4ccccc4)NC(=O)[C@H](CC(N)=O)NC(=O)[C@H]([C@@H](C)O)NC3=O)C(=O)N[C@@H](CCCNC(=N)N)C(=O)N[C@@H](CCCCN)C(=O)N[C@@H](CC(N)=O)C(=O)N[C@@H](CCCCN)C(=O)N[C@@H](CSSC[C@@H](C(=O)N[C@@H](CCCCN)C(=O)O)NC(=O)[C@H](CC(N)=O)NC(=O)[C@H]([C@@H](C)O)NC1=O)C(=O)N[C@@H]([C@@H](C)O)C(=O)N[C@@H](Cc1c[nH]cn1)C(=O)NCC(=O)N[C@@H](CCCCN)C(=O)N2 [F32T]
block of Kv1.2 ([1]; at 100 nM concentration): very small amount of block | estimated increase in Kd for Kv1.2 ([1]; compared to sWT, estimated from block at 100 nM): about 1000 fold | pKd [3]: 8.12 | reduction of toxin affinity for Kv1.3 compared to the sWT toxin ([3]; compared to sWT): about 26 fold

CSCC[C@@H]1NC(=O)[C@@H]2CSSC[C@H](NC(=O)[C@H](CCC(=O)O)NC(=O)[C@H](CCCCN)NC(=O)[C@@H]3CCC(=O)N3)C(=O)N[C@@H]([C@@H](C)O)C(=O)NCC(=O)N3CCC[C@H]3C(=O)N[C@@H](CCC(N)=O)C(=O)N[C@@H](Cc3c[nH]cn3)C(=O)N[C@H]3CSSC[C@H](NC(=O)[C@H](CCCCN)NC(=O)[C@H](CCCNC(=N)N)NC(=O)[C@H](CC(N)=O)NC1=O)C(=O)N[C@@H](CCCCN)C(=O)N[C@H]1CSSC[C@H](NC(=O)[C@H](Cc4ccccc4)NC(=O)[C@H](CC(N)=O)NC(=O)[C@H]([C@@H](C)O)NC3=O)C(=O)N[C@@H](CCCNC(=N)N)C(=O)N[C@@H](CCCCN)C(=O)N[C@@H](CC(N)=O)C(=O)N[C@@H](CCCCN)C(=O)N[C@@H](CSSC[C@@H](C(=O)N[C@@H](CCCCN)C(=O)O)NC(=O)[C@H](CC(N)=O)NC(=O)[C@H](Cc3ccccc3)NC1=O)C(=O)N[C@@H]([C@@H](C)O)C(=O)N[C@@H](Cc1c[nH]cn1)C(=O)NCC(=O)N[C@@H](CCCCN)C(=O)N2 [sWT, Anuroctoxin, reference compound]
inhibition of DTH [4]: inhibit DTH | pKd [1]: 8.28 | pKd [3]: 9.52

pKd: −log10 of the molar value. Where two headings read alike, the source gives them in different places.
